These results are taken from patent publication US12331052B2, “Organic compounds” (INTRA-CELLULAR THERAPIES, INC., priority 2018, dated 2025).

In experiment [1] the test system is CD-1 mice. The experiment is described as follows: Mouse tail flick assay: analgesia after 14-day chronic administration. For orientation: In hot-plate and tail-flick tests a longer latency is read as antinociception.
For experiment [2], the system named is CD-1 mice. In words: Mouse tail flick assay: time course for analgesia. The following applies: 1 mg/kg s.c. Type of experiment: in vivo.
The target of another experiment is Mu opiate receptor (Homo sapiens, UniProt P35372). In words: Receptor binding, Mu opiate receptor. The note with it: @ 100 nM.

SMILES strings stand for the structures.

Turning to `O=C1CN2c3c(cccc3[C@@H]3CN(CCCc4noc5cc(F)ccc45)CC[C@@H]32)N1`, the Latency in the experiment on CD-1 mice [1] ((B) chronic Ex. 3, 0.3 mg/kg, acute Vehicle) was found to be 0.893 s; with CD-1 mice [1] ((C) chronic Ex. 3, 3.0 mg/kg, acute Vehicle), 1.04 s.

In the case of `O=C1CN2c3c(cccc3[C@@H]3CN(CCCOc4ccc(F)cc4)CC[C@@H]32)N1` [Example 1, (6bR,10aS)-8-(3-(4-fluorophenoxy)propyl)-6b,7,8,9,10,10a-hexahydro-1H-pyrido[3′,4′:4,5]pyrrolo[1,2,3-de]quinoxalin-2(3H)-one], the Latency in the experiment on CD-1 mice [1] ((A) chronic Vehicle, acute 0.01 mg/kg s.c.) came out at 1.87 s; in the experiment on CD-1 mice [1] ((A) chronic Vehicle, acute 0.03 mg/kg s.c.), 2.50 s; with CD-1 mice [1] ((A) chronic Vehicle, acute 0.1 mg/kg s.c.) it was 5.26 s; in the experiment with CD-1 mice [1] ((A) chronic Vehicle, acute 0.3 mg/kg s.c.), 8.26 s; in the experiment on CD-1 mice [1] ((A) chronic Vehicle, acute 1.0 mg/kg s.c.), 9.74 s; in the experiment on CD-1 mice [1] ((B) chronic Ex. 3, 0.3 mg/kg, acute Ex. 1, 0.01 mg/kg), 1.66 s. The Latency worked out at 1.30 s in the experiment on CD-1 mice [1] ((B) chronic Ex. 3, 0.3 mg/kg, acute Ex. 1, 0.03 mg/kg); 2.60 s in the experiment on CD-1 mice [1] ((B) chronic Ex. 3, 0.3 mg/kg, acute Ex. 1, 0.1 mg/kg); 3.93 s with CD-1 mice [1] ((B) chronic Ex. 3, 0.3 mg/kg, acute Ex. 1, 0.3 mg/kg); 5.64 s in the experiment with CD-1 mice [1] ((B) chronic Ex. 3, 0.3 mg/kg, acute Ex. 1, 1.0 mg/kg); 1.64 s with CD-1 mice [1] ((C) chronic Ex. 3, 3.0 mg/kg, acute Ex. 1, 0.01 mg/kg); 1.80 s with CD-1 mice [1] ((C) chronic Ex. 3, 3.0 mg/kg, acute Ex. 1, 0.03 mg/kg). For the same compound, the Latency with CD-1 mice [1] ((C) chronic Ex. 3, 3.0 mg/kg, acute Ex. 1, 0.1 mg/kg) worked out at 3.94 s; in the experiment on CD-1 mice [1] ((C) chronic Ex. 3, 3.0 mg/kg, acute Ex. 1, 0.3 mg/kg), 4.84 s; in the experiment with CD-1 mice [1] ((C) chronic Ex. 3, 3.0 mg/kg, acute Ex. 1, 1.0 mg/kg) it was 7.94 s. In addition, the “TF Latency” value was determined as 5.77 s in the experiment on CD-1 mice [2] (30 min prior); 2.42 s in the experiment with CD-1 mice [2] (2 h prior); 1.48 s in the experiment with CD-1 mice [2] (4 h prior); 1.36 s in the experiment on CD-1 mice [2] (6 h prior); 1.29 s with CD-1 mice [2] (24 h prior).

`O=C1CN2c3c(cccc3[C@@H]3CN(CCCOc4ccccc4F)CC[C@@H]32)N1` [Example 21, (6bR,10aS)-8-(3-(2-fluorophenoxy)propyl)-6b,7,8,9,10,10a-hexahydro-1H-pyrido[3′,4′:4,5]pyrrolo[1,2,3-de]quinoxalin-2(3H)-one] had a maximum inhibition on Mu opiate receptor of 34% @.

In turn, `CC(C)N1C(=O)CN2c3c(cccc31)[C@@H]1CN(CCCOc3ccc(F)cc3)CC[C@@H]12` [Example 22, (6bR,10aS)-8-(3-(4-fluorophenoxy)propyl)-3-isopropyl-6b,7,8,9,10,10a-hexa-hydro-1H-pyrido[3′,4′:4,5]pyrrolo[1,2,3-de]quinoxalin-2(3H)-one] had a maximum inhibition at Mu opiate receptor of 17% @.

Regarding `O=C1CN2c3c(cccc3[C@@H]3CN(CCCOc4ccc(I)cc4)CC[C@@H]32)N1` [Example 23, (6bR,10aS)-8-(3-(4-iodophenoxy)propyl)-6b,7,8,9,10,10a-hexahydro-1H-pyrido[3′,4′:4,5]pyrrolo[1,2,3-de]quinoxalin-2(3H)-one], the maximum inhibition on Mu opiate receptor is 88% @.

On Mu opiate receptor, `O=C1CN2c3c(cccc3[C@@H]3CN(CCCOc4ccc(Br)cc4)CC[C@@H]32)N1` [Example 24, (6bR,10aS)-8-(3-(4-bromophenoxy)propyl)-6b,7,8,9,10,10a-hexahydro-1H-pyrido[3′,4′:4,5]pyrrolo[1,2,3-de]quinoxalin-2(3H)-one] came in with a maximum inhibition of 91% @.

`Cc1ccc(OCCCN2CC[C@H]3[C@@H](C2)c2cccc4c2N3CC(=O)N4)cc1` [Example 25, (6bR,10aS)-8-(3-(p-tolyloxy)propyl)-6b,7,8,9,10,10a-hexahydro-1H-pyrido-[3′,4′:4,5]pyrrolo[1,2,3-de]quinoxalin-2(3H)-one]: the maximum inhibition on Mu opiate receptor worked out at 54% @.
